Reference: article PMC12207880 (The Oncologist, 2025)
“Also recorded” adds a separate entry of the source.

Test: Phase I trial: plasma pharmacokinetics of SPH3643 after single and multiple dosing of SPH4336
Type: in vivo, human
Details: for dose proportionality of plasma exposure (Cmax, AUC0-last): 50-600 mg
[1] = single dose, doses of 50-600 mg, range over cohorts

Cc1nc2c(F)cc(-c3nc(Nc4ccc5c(n4)CCN(CCN(C)C)C5)ncc3F)cc2n1C1CC1
dose proportionality of plasma exposure (Cmax, AUC0-last): increased proportionally within the range of ~50-400 mg but did not increase further at 600 mg; also recorded: increased proportionally within the range of 50-400 mg, except at 600 mg
dose proportionality of plasma exposure (Cmax, AUC0-last) (listed as SHP4336): increased proportionally with a dose ranging from 50 to 400 mg, but it did not increase from 400 to 600 mg
Ctrough (multiple dosing 400 mg QD, n=7, geometric mean (variation %)): 58.2 (37.5%, n=7) ng/mL
geometric mean terminal t1/2 [1]: 52.8 to 72.3 h
median Tmax [1]: 10.0 to 47.8 h
